Experimental data published in US20220023317A1, “PREVENTING OR MITIGATING CHEMOTHERAPY INDUCED ALOPECIA USING VITAMIN D” (Berg LLC, priority 2013, published 2022).

What was measured:
HEKa cells = test: Antibody microarray (Panorama XP725) of calcitriol-treated HEKa; assay type: cell-based, human; conditions: calcitriol-treated (24 hour) HEKa
Description: Briefly, the treated HEKa cells were first harvested and then extracted to obtain a soluble protein supernatant. […] The excess dye was removed from the protein sample, and the resulting labeled protein samples were used for microarray incubation. To determine the expression level of a particular target protein at a later time point (e.g., at hour 6 or 24) relative to that at an earlier time point (e.g., at hour 3), the samples were labeled by different labels (e.g., 3-hour extract labeled with Cy3, 6-hour or 24-hour extract labeled with Cy5). […] After incubation with the microarray chip (according to manufactures recommended protocols), the chips were washed and dried. The microarrays were then scanned with a fluorescent laser scanner to measure the relative fluorescence intensity of the Cy3 and Cy5 dyes. If the amount of a particular type of target protein increased (or decreased) over time, more (or less) of the dye associated with the later time point (e.g., Cy5) will be retained by the microarray. For example, in this experiment, the earliest time point (e.g., 3-hour) was used as a baseline to determine the relative protein expression level at two later time points (e.g., 6-hour vs. 24-hour). If more Cy5 is retained by the array between 6-24 hours, the expression level of the target protein increased over the time period. […]

Gottingen Minipig = test: 4-week dermal toxicity study in Gottingen Minipigs; conditions: minipig NOAEL dose vs initial clinical dose 5 μg/mL x 1 mL x 2/day, 60 kg
Description: Observations for morbidity, mortality, injury, and the availability of food and water were conducted twice daily for all animals. Clinical observations were conducted weekly.

For `C=C1/C(=C\C=C2/CCC[C@]3(C)[C@@H]([C@H](C)CCCC(C)(C)O)CC[C@@H]23)C[C@@H](O)C[C@@H]1O` [Calcitriol, (1a.3B.5Z.7E)-9,10-secocholesta-5,7,10(19)-triene-1,3,25-triol], the “Target Proteins with Decreased (>2-fold) Protein Levels (value = protein)” value (HEKa cells) was “Transforming Growth Factorb pan and WAVE and Protein Tyrosine Phosphatase PEST and CD40 and Crk II and Growth Factor Independence1 and Serine Threonine Protein and Cathepsin D” and the “margin of safety (MOS)” value (Gottingen Minipig) was 20.
